Data: ChEMBL document CHEMBL1125479, “Methoxytetrahydropyrans. A new series of selective and orally potent 5-lipoxygenase inhibitors” (J Med Chem, 1992)

Biological target: T1, Polyunsaturated fatty acid 5-lipoxygenase (Homo sapiens, UniProt P09917)
T1 sequence (P09917 whole entry): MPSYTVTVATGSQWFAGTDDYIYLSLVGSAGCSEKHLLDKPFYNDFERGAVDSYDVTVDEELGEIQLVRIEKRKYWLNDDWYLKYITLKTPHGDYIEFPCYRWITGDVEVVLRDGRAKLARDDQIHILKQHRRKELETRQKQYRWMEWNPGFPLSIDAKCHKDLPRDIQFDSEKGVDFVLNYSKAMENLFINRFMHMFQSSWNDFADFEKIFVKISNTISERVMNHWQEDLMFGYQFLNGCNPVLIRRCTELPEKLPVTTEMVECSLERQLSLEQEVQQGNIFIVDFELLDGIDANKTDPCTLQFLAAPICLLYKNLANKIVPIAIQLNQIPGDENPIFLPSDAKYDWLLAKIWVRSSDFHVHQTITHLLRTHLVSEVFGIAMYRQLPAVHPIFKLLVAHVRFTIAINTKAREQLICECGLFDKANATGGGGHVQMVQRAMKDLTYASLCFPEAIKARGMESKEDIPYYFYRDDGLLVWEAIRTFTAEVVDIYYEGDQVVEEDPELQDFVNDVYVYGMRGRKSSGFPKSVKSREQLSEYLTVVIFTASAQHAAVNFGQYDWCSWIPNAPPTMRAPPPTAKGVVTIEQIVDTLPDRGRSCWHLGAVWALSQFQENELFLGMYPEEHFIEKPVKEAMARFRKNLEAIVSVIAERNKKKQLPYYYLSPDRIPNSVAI
Test: In vitro inhibition of leukotriene B4 synthesis in human whole blood by inhibiting 5-lipoxygenase
Assay type: tissue-based
Summary of the method: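 Heparinized human whole blood preincubated with compound, then stimulated with calcium ionophore A23187; LTB4 (5-LPO product) and TxB2 (cyclooxygenase product) generation measured.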

| Compound | IC50 |
| --- | --- |
| COC(C)(c1nccs1)c1cc(OCc2ccc3ccccc3c2)ccc1C (configuration not stated) | 40 µM |
| COC1(c2cc(F)cc(OCc3ccc4nccnc4c3)c2)CCOCC1 | 0.3 µM |
